Reference: patent US20040228889A1, “Use of N-arylmethylene ethylenediaminetriacetates, N-arylmethylene iminodiacetated or N,N'-diarylmethylene ethylenediamineacetates as doners of NO” (L'OREAL S.A., priority 2003, published 2004)

Chains of the proteins cited; added tags and fusions are not shown.
UniProt P35228, whole entry: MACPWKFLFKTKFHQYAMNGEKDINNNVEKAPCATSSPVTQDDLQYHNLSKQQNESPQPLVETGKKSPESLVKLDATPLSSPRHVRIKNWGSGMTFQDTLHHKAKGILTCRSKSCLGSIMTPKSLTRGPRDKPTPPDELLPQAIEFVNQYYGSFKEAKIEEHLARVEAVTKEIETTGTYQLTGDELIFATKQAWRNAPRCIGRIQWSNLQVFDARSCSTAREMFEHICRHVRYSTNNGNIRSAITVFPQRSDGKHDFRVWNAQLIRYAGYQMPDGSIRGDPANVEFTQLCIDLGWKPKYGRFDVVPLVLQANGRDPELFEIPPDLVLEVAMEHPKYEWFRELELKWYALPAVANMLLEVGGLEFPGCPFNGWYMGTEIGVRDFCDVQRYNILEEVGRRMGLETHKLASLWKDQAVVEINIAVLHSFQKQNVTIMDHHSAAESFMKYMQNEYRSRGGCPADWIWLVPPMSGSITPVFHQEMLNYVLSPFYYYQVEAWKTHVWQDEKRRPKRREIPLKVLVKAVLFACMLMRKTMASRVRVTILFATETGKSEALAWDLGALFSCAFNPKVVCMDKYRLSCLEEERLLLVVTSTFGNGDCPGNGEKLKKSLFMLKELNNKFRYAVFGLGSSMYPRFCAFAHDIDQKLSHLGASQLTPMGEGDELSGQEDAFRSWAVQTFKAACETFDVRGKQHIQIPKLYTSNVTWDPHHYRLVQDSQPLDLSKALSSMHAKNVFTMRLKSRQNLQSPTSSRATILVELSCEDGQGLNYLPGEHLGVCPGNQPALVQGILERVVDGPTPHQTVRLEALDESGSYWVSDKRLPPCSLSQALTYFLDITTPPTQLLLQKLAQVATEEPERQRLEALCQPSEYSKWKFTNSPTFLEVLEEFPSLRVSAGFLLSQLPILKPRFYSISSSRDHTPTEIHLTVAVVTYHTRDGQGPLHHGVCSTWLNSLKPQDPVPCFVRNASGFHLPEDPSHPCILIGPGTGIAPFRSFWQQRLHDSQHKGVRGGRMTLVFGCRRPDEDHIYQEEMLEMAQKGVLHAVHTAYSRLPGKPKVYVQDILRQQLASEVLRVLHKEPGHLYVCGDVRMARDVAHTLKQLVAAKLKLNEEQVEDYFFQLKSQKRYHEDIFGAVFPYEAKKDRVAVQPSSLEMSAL

Biological target: T1, inducible NO synthase (NOS2) (Homo sapiens, UniProt P35228)
T1 construct: endogenous in cells; host or cells: normal human keratinocytes (primary culture), induced with interferon-gamma and interleukin 1-beta
Assay: screening test of the modulation of induction of NOS2 by normal human keratinocytes (nitrite and nitrate measurement)
Format: cell-based
Details: control compound at 200 μm; cytokine-induced normal human keratinocytes
Description: The activity of N,N′-bis-(3,4,5-trimethoxybenzyl) ethylenediamine-diacetic acid on the inducible NO synthase was evaluated in the assay described by Heck et al. (J.B.C., vol. 267, No. 30, 21277-21280, 25 Oct. 1992), a screening test of the modulation of induction of NOS2 by normal human keratinocytes. The objective of this test is, briefly, to evaluate the concentration of nitrate and nitrite after stimulation of the NO-synthase 2.
The test is carried out on a culture of normal human keratinocytes, derived from samples taken. The induction of the inducible NO synthase (NOS2) was caused by the addition of a combination of several cytokines to the culture medium. The product tested was applied at three concentrations varying from 10 to 1000 μM.
The product tested was classed in one of the following two categories: inhibitor (I) or donor (D) of NO (nitric oxide) according to its capacity to diminish or increase, respectively, the quantity of nitrites and nitrates produced compared to the control signal […].
The following controls were introduced in the test: […]
In order to determine the activity of the test product the quantity of stable NO reaction products (nitrites and nitrates) is measured with the aid of the “nitric colorimetric assay” kit sold by the Boehringer company under catalogue number 1756.28. […]

SMILES	% inhibition [%]
CNC(=N)NCCC[C@H](N)C(=O)O [B, N^9-monomethyl-L-arginine (L form), reference compound]	100
CNC(=N)NCCC[C@@H](N)C(=O)O [C, N^9-monomethyl-L-arginine (D form), reference compound]	0
